# From PubChem BioAssay
# Hits are enriched below; roughly 0.43% of the tested compounds scored in any of these assays.
# HCMV NEC inh – cytomegalovirus nuclear egress complex inhibition | inhibition, % (no concentration beside the values) | 190,000 tested, 0.15% active | HTRF UL50-UL53 interaction, normalized percent inhibition | AID 1918969; in the data active = inhibition above about 27%, passing the limit was not always enough
# GIV Gai3 FP – inhibitors of GIV GBA-motif binding to rat Galpha-i3. actives 0.42% (n = 210,000). Galpha-i3/FITC-GIV peptide fluorescence polarization, 90 min; active compounds read low; scaled: aluminum fluoride 0%, vehicle 100%. AID 1224905. percent of control (FP), % (no concentration beside the values). P08753;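 active means replicate mean at 85% of control or lower, very high polarization wells dropped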;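 further: wells of about 15 µL received 100 nL stock; the first replicate is given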
# GIV-Gai FP conf – confirmation of inhibitors of GIV binding to rat Galpha-i3. AID 1259350. shares compounds with GIV Gai3 FP. 580 tested, 38% active. FITC-GIV peptide binding to Galphai3, fluorescence polarization; active compounds read low. fluorescence polarization, mP at 100 µM;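 active = inhibition score of 15 or more, meaning 100 minus mean polarization as percent of control over three replicates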;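 note: lower mP means peptide displaced from Galphai3 so more inhibition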
# GIV Gai AS conf – confirmation of inhibitors of GIV binding to human Galpha-i3; shares compounds with GIV Gai3 FP; AlphaScreen Galphai3-GIV binding, purified proteins, 90 min; active compounds read low; AlphaScreen counts at 100 µM; 580 tested, 39% active;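 active = inhibition score at or above a set limit, where the score is 100 minus the three-replicate mean percent of control signal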
# Numbers stand for hits; - = inactive; . = no result given.
SMILES,HCMV NEC inh,GIV Gai3 FP,GIV-Gai FP conf,GIV Gai AS conf
CCOc1ccc(C(c2c(C)[nH]n(-c3ccccc3)c2=O)c2c(C)[nH]n(-c3ccccc3)c2=O)cc1OC,-,-,.,.
CCOc1cc(C(c2c(C)[nH]n(-c3ccccc3)c2=O)c2c(C)[nH]n(-c3ccccc3)c2=O)ccc1OC,.,69.5,-,9976
Cc1[nH]n(-c2ccccc2)c(=O)c1C(c1ccccc1OCc1ccccc1)c1c(C)[nH]n(-c2ccccc2)c1=O,.,-,.,.
CCOc1cc(C(c2c(C)[nH]n(-c3ccccc3)c2=O)c2c(C)[nH]n(-c3ccccc3)c2=O)ccc1OCc1ccccc1,.,81.7,57.9,-
O=C(O)c1ccc(-c2ccc(C(=O)O)s2)s1,-,-,.,.
COC(=O)c1c(CNC2CCCCC2)n(C)c2cc(Br)c(OC)cc12,.,-,.,.
COc1ccc(N2CCN(C(=O)c3cnc4sccn4c3=O)CC2)cc1,-,-,.,.
CC(C)OC(=O)c1cc2c(ccn2C)n1Cc1ccc(Cl)cc1Cl,-,-,.,.
Cc1csc(-c2cc(S(=O)(=O)NCCN3CCCCC3C)cn2CC(=O)N2CCCCC2)n1 (stereo not drawn),.,-,.,.
CN(Cc1ccccc1)C(=O)c1cc2c(=O)n3ccccc3nc2n1C,-,67.6,-,-
CCN(Cc1ccccc1)C(=O)c1cc2c(=O)n3ccccc3nc2n1C,-,-,.,.
CCOC(=O)Cc1nc(C)cs1,-,.,.,.
CN1CCN(c2nn3c(NC(C)(C)C)c(-c4cccc(F)c4)nc3s2)CC1,-,-,.,.
COc1ccc(C(=O)NC(c2ccccc2Cl)c2cc(Cl)c3cccnc3c2O)cc1 (stereo not drawn),.,-,.,.
COc1ccc(C(=O)NC(c2ccc(C)cc2)c2cc(Cl)c3cccnc3c2O)cc1 (stereo not drawn),.,80.3,61,-
COc1ccc2c(CC(=O)O)coc2c1,-,-,-,-
COc1ccc2c(CC(=O)Nc3ccccc3)coc2c1,-,.,.,.
COc1cccc(-c2[nH]nc(N)c2C)c1,-,-,.,.
Cc1ccc(NC(=O)NC(C)c2c(-n3cccc3)sc(C)c2C)cc1F (stereo not drawn),-,-,.,.
Cc1cccc(NC(=O)NC(C)c2c(-n3cccc3)sc(C)c2C)c1C (stereo not drawn),.,-,-,-
O=c1[nH]c(SCCO)nc2sc3c(c12)CCCC3,-,.,.,.
O=C(O)CC(Sc1nc2sc3c(c2c(=O)[nH]1)CCCC3)C(=O)O (stereo not drawn),.,75.1,51.5,16638
N#Cc1ccccc1Cn1cc(C=C2C(=O)NC(=O)NC2=O)c2ccccc21,-,63.5,-,-
O=C1NC(=O)/C(=C\c2cn(Cc3ccccc3F)c3ccccc23)N1,.,-,.,.
CCN(CC)C(=O)Cn1cnc2onc(-c3ccc(Cl)cc3)c2c1=O,-,-,.,.
SMILES,HCMV NEC inh,GIV Gai3 FP,GIV-Gai FP conf,GIV Gai AS conf
N#CCCn1c(SCC(=O)NCC23CC4CC(CC(C4)C2)C3)nc2ccccc21,-,.,.,.
CCCn1cc(S(=O)(=O)c2ccc(OC)cc2)c(=O)c2cc(F)c(N3CCN(C)CC3)cc21,-,67.9,-,-
CCCn1cc(S(=O)(=O)c2ccc(CC)cc2)c(=O)c2cc(F)c(N3CCN(C)CC3)cc21,.,-,.,.
Cc1ccc(S(=O)(=O)Nc2cc3c(cc2N2CCCCC2)n(C)c(=O)c(=O)n3C)cc1,-,-,.,.
CCOC(=O)C1=NN(c2ccccc2)C2(S1)c1ccccc1C(c1ccc(C(C)C)cc1)=NN2c1ccccc1 (stereo not drawn),.,-,.,.
C/C(=N\NC(=O)c1ccc(CN2CCOCC2)cc1)c1cccs1,-,-,.,.
CCOC(=O)c1ccc(-c2ccc(/C=c3/sc4nc5c(C)c(C)ccc5n4c3=O)o2)cc1,.,78.7,-,-
CCOc1cc(/C=c2\sc3nc4c(C)c(C)ccc4n3c2=O)cc(Cl)c1O,-,.,.,.
N#C/C(=C/c1ccc(Cl)cc1Cl)c1nc2ccccc2c(=O)[nH]1,-,-,.,.
COc1cc(/C=C(\C#N)c2nc3ccc(C)cc3[nH]2)ccc1OCc1ccc(C)cc1,-,-,.,.
COc1cccc(/C=C(\C#N)c2nc3ccc(C)cc3[nH]2)c1,-,69.5,-,-
COc1c(Cl)cc(Cl)cc1/C=C(\C#N)c1nc2ccccc2[nH]1,.,46.2,-,-
CCC(=O)Oc1ccc(/C=C(\C#N)c2nc3ccccc3[nH]2)cc1OC,-,-,-,-
COc1cc(/C=C(\C#N)c2nc3ccccc3[nH]2)ccc1OCc1ccccc1F,-,-,.,.
Cc1ccc(C)c(CN2C(c3ccc(F)c(F)c3)Nc3ccccc3S2(=O)=O)c1 (stereo not drawn),-,-,.,.
Cc1csc(-c2cc(S(=O)(=O)N3CCCC3)c(C)n2C)n1,.,-,.,.
CCc1onc(C)c1C1CCCN1Cc1ccc(OC(C)C)c(OC)c1 (stereo not drawn),.,-,.,.
